Earlier results in patent publication US20240342186A1, “PYRIDINE DERIVATIVES WITH N-LINKED CYCLIC SUBSTITUENTS AS cGAS INHIBITORS” (Boehringer Ingelheim International GmbH, priority 2021, published 2024).

Tested on: cGAS/STING pathway
Details: prior art statement; cited from earlier work

Compound: O=C(N[C@H]1CCCC[C@H]1C(=O)O)c1cnn2c(O)cc(-c3ccccc3)nc12
- cellular activity as a cGAS inhibitor: no acceptable cellular activity
